Earlier results in PMC8633019.

What was measured:
profilin (Homo sapiens) = profilin (Homo sapiens) (UniProt P07737); experiment: actin polymerization rate
MRTF-A (Homo sapiens) = MRTF-A (Homo sapiens) (UniProt Q969V6); experiment: actin polymerization rate

- Kd (profilin (Homo sapiens)): 3 µM
- Kd (MRTF-A (Homo sapiens)): 1.8 µM
Substance: smooth muscle alpha-actin (from UniProt P62736)
